Earlier results in US20130211209A1, “ENERGY AWARE SENSOR MANAGEMENT FOR WEARABLE MEDICAL SYSTEMS OPTIMIZATION” (published 2013).

The chains behind the UniProt entries cited, without tags or fusion partners.
UniProt O60733, whole entry: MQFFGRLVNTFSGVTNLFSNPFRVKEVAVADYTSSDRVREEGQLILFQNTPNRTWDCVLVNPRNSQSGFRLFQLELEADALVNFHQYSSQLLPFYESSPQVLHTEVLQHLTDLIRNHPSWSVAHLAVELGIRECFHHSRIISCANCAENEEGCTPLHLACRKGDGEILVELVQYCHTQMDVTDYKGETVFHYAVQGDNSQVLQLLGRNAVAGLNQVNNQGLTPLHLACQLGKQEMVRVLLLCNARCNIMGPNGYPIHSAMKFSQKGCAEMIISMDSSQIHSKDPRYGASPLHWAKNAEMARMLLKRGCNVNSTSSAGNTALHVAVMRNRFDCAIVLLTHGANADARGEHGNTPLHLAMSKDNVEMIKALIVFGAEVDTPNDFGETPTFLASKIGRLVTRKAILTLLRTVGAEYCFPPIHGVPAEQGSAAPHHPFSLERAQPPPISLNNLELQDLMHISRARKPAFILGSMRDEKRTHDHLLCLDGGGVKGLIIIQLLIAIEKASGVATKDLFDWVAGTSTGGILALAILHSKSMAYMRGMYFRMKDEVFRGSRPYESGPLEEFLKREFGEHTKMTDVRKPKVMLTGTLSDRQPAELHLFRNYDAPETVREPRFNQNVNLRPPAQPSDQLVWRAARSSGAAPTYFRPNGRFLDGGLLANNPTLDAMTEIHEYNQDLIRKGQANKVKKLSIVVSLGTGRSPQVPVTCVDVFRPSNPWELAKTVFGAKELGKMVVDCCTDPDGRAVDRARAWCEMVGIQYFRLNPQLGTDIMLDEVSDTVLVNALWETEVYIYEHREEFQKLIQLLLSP
UniProt P47712, whole entry: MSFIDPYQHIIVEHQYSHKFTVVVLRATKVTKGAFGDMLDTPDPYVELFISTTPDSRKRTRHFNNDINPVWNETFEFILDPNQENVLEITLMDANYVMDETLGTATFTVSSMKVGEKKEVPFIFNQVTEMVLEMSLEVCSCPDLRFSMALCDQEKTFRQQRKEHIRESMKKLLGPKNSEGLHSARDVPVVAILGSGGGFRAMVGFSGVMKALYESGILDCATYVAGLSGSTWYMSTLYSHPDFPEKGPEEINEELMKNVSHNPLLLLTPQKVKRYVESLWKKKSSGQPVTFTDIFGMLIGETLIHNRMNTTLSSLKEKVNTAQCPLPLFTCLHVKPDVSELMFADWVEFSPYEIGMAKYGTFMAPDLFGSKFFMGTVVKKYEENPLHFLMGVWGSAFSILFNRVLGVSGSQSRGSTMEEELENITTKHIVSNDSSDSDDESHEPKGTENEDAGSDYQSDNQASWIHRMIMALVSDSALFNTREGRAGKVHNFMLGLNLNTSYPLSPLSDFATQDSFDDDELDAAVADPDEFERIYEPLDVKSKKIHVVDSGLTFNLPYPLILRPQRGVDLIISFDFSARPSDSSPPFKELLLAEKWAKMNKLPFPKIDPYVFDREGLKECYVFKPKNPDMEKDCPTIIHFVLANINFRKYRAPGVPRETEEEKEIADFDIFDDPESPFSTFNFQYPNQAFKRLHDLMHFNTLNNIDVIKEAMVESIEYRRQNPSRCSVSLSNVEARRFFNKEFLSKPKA
UniProt Q8R3U1, whole entry: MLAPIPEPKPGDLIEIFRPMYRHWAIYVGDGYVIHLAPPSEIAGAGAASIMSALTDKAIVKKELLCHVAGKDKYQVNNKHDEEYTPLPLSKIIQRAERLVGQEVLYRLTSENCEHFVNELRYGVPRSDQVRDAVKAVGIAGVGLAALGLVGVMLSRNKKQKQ

How the values were obtained:
iPLA2 = iPLA2 (Homo sapiens, UniProt O60733)
cPLA2 = cPLA2 (Homo sapiens, UniProt P47712)
PLA2G16 = PLA2G16 (Mus musculus, UniProt Q8R3U1)

CCCCC/C=C\C/C=C\C/C=C\C/C=C\CCCCOP(=O)(F)OC (stereo not drawn)
inhibits: inhibition of iPLA2 (iPLA2) | inhibition of cPLA2 (cPLA2) | inhibition of PLA2G16 (PLA2G16)
